# PubChem BioAssay AID1479 (National Center for Advancing Translational Sciences (NCATS), 2009)
# Several values for one entry are separate records, joined by “and”; a condition that tells them apart may be missing. Equal values may be shown once. Only a part is listed here, and it is no random draw. Activity calls are given as the source filed them. The call rests on the fitted dose curve; in most records, active means well fitted curve in either direction with a large enough effect; inconclusive means small, poorly fitted or top-dose-only effect; inactive means flat fitted curve, though single readings scatter.
# Test: Total Fluorescence Counterscreen for Inhibitors of the Interaction of Thyroid Hormone Receptor and Steroid Receptor Coregulator 2
# Conditions: TRb/SRC2 Texas Red total fluorescence interference; at 106 µM (top of the series) unless noted
# On the % scale 0 is the no-effect control and ±100 the full control effect.
row,Compound,"fluorescence change, negative = quenching"
1,O=C(NC(Sc1ccncn1)C(Cl)(Cl)Cl)c1ccccc1 (stereo unspecified),inactive: -1.67%
2,Cc1c2non([O-])c-2c(C)[n+](=O)[n+]1[O-],inactive: -0.434%
3,Oc1ccccc1CNc1ccccn1,inactive: -0.226%
4,CC(C)OP(=O)(OC(C)C)SCCNS(=O)(=O)c1ccccc1,inactive: -8.64% [at 201 µM]
5,Nc1cc(N)c2nonc2c1[N+](=O)[O-],inactive: -0.486%
6,CC(C)CC(=O)NC(Sc1ccc(Cl)cc1)C(Cl)(Cl)Cl (stereo unspecified),inactive: -1.77%
7,Cc1ccc(N/C(=N/P(=O)(N2CCOCC2)N2CCOCC2)N2CCOCC2)cc1,inactive: -0.282%
8,NC(=O)c1cc([N+](=O)[O-])cc([N+](=O)[O-])c1N,inactive: -3.57%
9,CN1CCCC(OC(=O)C(c2ccccc2)c2ccccc2)C1 (stereo unspecified),inactive: 3.89%
10,Clc1ccc(Cl)c(NC2=NCC(CBr)S2)c1 (stereo unspecified),inactive: 5.54%
11,Cc1ccc(OP(=O)(Nc2nccs2)Oc2ccc(C)cc2)cc1,inactive: -2.32%
12,COc1ccccc1OP(=O)(Nc1ccc(C)cn1)Oc1ccccc1OC,inactive: -0.147% [at 53 µM]
13,CCN(/C(=N/P(=O)(N1CCOCC1)N1CCOCC1)N1CCOCC1)c1ccc(OC)cc1,inactive: -1.68%
14,C[N+]1=C2C=CC=CC=C2SC12C([N+](=O)[O-])=CC([N+](=O)[O-])=C[C-]2[N+](=O)[O-] (stereo unspecified),inactive: -4.96%
15,Nc1ccc([As](=O)(O)c2ccc(N)cc2)cc1,inactive: -0.995%
16,CC(=O)C1=CCCC2CCC1N2 (stereo unspecified),inactive: 5.03% and inactive: 1.22%

row,Compound,"fluorescence change, negative = quenching"
1,CC1CCN(C(=O)Oc2c(Cl)cc(Cl)c3cccnc23)CC1,inactive: 2.64%
2,CN(C)C(=O)OCCc1n(C)cc[n+]1C,inactive: 0.185%
3,CC(C)=N/N=C(\N)N[N+](=O)[O-],inactive: 1.17%
4,O=[N+]([O-])c1ccc([N+](=O)[O-])cc1,inactive: -3.36% [at 201 µM]
5,COc1ccc(C2=NCC(CBr)S2)cc1 (stereo unspecified),inactive: 0.462%
6,CCc1nc2c(n1)c1c(non1O)c1c2no[n+]1[O-],inactive: 9.62%
7,O=[N+]([O-])c1cc([N+](=O)[O-])c(CCNc2ccccc2)c([N+](=O)[O-])c1,inactive: -3.34%
8,Cc1ccc(NP(=O)(Oc2ccccc2)Oc2ccccc2)nc1,inactive: -1.45%
9,O=[N+]([O-])c1cccc2n[nH]nc12,inactive: -1.91%
10,CC(=O)N1C2C3N(C(C)=O)C1C1N(C(C)=O)C(C(N1C(C)=O)N3C(C)=O)N2C(C)=O,inactive: 1.24%
11,O=[N+]([O-])c1ncn(CCn2ncnc2[N+](=O)[O-])n1,inactive: -1.41%
12,CC(C)(C)C(=O)NC(Sc1ccncn1)C(Cl)(Cl)Cl (stereo unspecified),inactive: -1.27%
13,O=C(O)CNc1ccc([As](=O)(O)O)cc1,inactive: -2.22%
14,O=[N+]([O-])c1cccc(NC2=NCC(CBr)S2)c1 (stereo unspecified),inactive: -0.724%
15,O=C(Nc1cc([As](=O)(O)O)ccc1O)c1ccccc1,inactive: -1.78%
